From ChEMBL document CHEMBL4507304, “Data for DCP probe TP-021” (2021) come the findings set out here.

By UniProt entry, the sequences of proteins in these tests, tags left out. Where a name states a change or a piece, a line headed by the entry shows the natural chain unless it says otherwise.
UniProt Q9Y2H1: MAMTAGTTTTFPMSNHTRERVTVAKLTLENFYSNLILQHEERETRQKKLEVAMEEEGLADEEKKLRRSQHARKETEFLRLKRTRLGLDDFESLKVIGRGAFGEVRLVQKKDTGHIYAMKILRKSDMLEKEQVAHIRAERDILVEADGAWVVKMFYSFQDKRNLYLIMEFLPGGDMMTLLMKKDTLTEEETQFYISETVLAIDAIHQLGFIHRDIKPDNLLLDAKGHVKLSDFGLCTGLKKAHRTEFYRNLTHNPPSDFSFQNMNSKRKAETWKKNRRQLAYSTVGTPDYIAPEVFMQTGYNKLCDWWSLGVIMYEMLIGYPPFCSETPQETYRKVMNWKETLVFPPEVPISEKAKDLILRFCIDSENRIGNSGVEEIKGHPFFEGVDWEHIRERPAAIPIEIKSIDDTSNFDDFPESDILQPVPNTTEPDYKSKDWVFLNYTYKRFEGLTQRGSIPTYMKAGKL
UniProt P19525: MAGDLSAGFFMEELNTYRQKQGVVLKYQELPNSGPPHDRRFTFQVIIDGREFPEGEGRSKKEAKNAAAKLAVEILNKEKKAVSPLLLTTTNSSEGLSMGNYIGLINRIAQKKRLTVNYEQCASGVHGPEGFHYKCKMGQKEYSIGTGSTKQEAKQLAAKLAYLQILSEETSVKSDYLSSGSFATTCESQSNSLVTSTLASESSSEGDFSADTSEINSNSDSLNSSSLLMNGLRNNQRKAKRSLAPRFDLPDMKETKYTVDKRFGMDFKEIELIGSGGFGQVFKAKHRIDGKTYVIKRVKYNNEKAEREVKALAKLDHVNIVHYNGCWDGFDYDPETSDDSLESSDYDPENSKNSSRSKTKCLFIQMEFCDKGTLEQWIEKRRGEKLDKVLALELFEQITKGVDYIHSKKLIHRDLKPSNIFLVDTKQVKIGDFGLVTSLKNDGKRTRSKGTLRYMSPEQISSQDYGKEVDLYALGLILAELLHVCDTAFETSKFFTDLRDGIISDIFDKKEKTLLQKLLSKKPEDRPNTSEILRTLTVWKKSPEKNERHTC
UniProt P21918, whole entry: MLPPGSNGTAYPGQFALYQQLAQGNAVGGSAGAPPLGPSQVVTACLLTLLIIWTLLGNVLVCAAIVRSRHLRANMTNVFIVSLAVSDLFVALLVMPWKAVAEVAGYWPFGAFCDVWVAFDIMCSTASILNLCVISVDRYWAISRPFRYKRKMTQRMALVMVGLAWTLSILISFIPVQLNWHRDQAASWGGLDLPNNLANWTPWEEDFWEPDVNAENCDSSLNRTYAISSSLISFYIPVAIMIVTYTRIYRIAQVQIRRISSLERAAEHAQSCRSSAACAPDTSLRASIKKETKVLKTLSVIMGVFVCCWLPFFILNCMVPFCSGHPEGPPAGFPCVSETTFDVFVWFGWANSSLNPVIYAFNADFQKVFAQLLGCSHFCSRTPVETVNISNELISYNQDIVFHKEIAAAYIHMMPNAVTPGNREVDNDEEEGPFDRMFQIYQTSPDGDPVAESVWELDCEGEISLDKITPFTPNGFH

Assay [1] concerns the target Serine/threonine-protein kinase 38-like (Homo sapiens) (UniProt Q9Y2H1). The settings on record: Compound concentration 1000.0 nM.
Assay [2] addresses Interferon-induced, double-stranded RNA-activated protein kinase (Homo sapiens) (UniProt P19525). Particulars: Compound concentration 1000.0 nM.
The target of assay [3] is T1, Serine/threonine-protein kinase Nek3 (Homo sapiens) (UniProt P51956).
T1 sequence (whole entry): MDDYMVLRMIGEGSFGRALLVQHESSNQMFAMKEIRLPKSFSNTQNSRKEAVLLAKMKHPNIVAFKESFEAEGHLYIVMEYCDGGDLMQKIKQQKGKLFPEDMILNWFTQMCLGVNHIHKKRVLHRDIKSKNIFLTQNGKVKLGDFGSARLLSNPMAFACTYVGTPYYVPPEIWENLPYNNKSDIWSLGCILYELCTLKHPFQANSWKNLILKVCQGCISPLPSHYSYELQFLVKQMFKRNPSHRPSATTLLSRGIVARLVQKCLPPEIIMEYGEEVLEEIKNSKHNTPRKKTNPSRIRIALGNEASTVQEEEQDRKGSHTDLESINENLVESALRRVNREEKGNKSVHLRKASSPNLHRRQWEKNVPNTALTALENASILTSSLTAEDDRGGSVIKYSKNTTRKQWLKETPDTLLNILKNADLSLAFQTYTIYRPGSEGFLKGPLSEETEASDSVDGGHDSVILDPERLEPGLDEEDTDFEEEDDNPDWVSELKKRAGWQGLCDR
The settings on record: Compound concentration 1000.0 nM.

Assay [4] concerns the target T2, Phosphatidylinositol 4,5-bisphosphate 3-kinase catalytic subunit delta isoform (Homo sapiens) (UniProt O00329).
T2 sequence (whole entry): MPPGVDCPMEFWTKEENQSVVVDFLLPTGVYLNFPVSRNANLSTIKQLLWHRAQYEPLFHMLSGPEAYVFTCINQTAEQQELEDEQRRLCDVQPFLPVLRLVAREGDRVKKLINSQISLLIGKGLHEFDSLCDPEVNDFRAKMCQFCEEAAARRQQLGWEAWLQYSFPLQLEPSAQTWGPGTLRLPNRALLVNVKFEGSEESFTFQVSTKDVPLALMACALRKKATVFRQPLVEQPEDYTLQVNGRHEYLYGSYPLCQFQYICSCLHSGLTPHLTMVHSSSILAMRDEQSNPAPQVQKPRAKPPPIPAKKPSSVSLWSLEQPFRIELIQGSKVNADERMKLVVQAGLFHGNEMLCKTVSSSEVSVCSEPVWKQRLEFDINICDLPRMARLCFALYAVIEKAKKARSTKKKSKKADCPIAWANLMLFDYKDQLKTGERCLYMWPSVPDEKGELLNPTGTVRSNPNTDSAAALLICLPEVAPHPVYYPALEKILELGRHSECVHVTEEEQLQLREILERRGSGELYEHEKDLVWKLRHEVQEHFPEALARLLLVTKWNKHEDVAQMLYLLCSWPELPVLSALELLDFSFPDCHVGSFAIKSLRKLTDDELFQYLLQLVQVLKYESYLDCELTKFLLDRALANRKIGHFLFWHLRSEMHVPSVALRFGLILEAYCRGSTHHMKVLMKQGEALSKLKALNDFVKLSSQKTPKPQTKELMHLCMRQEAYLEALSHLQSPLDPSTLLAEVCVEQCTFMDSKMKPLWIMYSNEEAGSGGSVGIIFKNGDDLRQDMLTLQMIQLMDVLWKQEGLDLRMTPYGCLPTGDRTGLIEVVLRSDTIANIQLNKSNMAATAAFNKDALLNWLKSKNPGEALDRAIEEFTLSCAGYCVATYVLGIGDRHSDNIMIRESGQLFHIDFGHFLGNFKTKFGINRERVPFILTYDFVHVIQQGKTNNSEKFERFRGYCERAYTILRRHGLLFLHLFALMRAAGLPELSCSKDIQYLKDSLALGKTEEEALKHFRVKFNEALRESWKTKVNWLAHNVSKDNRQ
The settings on record: Compound concentration 1000.0 nM.

Assay [5] addresses D(1B) dopamine receptor (Homo sapiens) (UniProt P21918). Particulars: Compound concentration 10.0 uM.

Turning to `O=C1CCc2cc(Nc3cc(OC4CCOCC4)c([N+](=O)[O-])cc3Cl)ccc2N1`, the results for the residual activity in assay [1] and in assay [2] were 41% and 46%, respectively.

With `N#Cc1ccc(Nc2ccc3[nH]c(=O)[nH]c3c2)c(Cl)c1`, the residual activity in assay [3] was 41%; in assay [4] it was 32%. Moreover, in assay [5], the inhibition was 21.3%.

As usually defined, the inhibition is the drop in the measured response relative to a control, in per cent.
